B1: Antibody I: anti-N3pGlu Abeta antibody with light chain SEQ ID NO: 12 and heavy chain SEQ ID NO: 11 (antibody)
heavy: QVQLVQSGAEVKKPGSSVKVSCKASGYTFTDYYINWVRQAPGQGLEWMGWINPGSGNTKYNEKFKGRVTITADESTSTAYMELSSLRSEDTAVYYCTREGETVYWGQGTLVTVSSASTKGPSVFPLAPSSKSTSGGTAALGCLVKDYFPEPVTVSWNSGALTSGVHTFPAVLQSSGLYSLSSVVTVPSSSLGTQTYICNVNHKPSNTKVDKKV[human IgG1 Fc not shown]
light: DVVMTQSPLSLPVTLGQPASISCKSSQSLLYSRGKTYLNWFQQRPGQSPRRLIYDVSKLDSGVPDRFSGSGSGTDFTLKISRVEAEDVGVYYCVQGTHYPFTFGQGTKLEIKRTVAAPSVFIFPPSDEQLKSGTASVVCLLNNFYPREAKVQWKVDNALQSGNSQESVTEQDSKDSTYSLSSTLTLSKADYEKHKVYACEVTHQGLSSPVTKSFNRGEC
B2: Antibody II: anti-N3pGlu Abeta antibody with light chain SEQ ID NO: 13 and heavy chain SEQ ID NO: 11 (antibody)
heavy: B1 heavy
light: DIQMTQSPSTLSASVGDRVTITCKSSQSLLYSRGKTYLNWLQQKPGKAPKLLIYAVSKLDSGVPSRFSGSGSGTEFTLTISSLQPDDFATYYCVQGTHYPFTFGQGTKLEIKRTVAAPSVFIFPPSDEQLKSGTASVVCLLNNFYPREAKVQWKVDNALQSGNSQESVTEQDSKDSTYSLSSTLTLSKADYEKHKVYACEVTHQGLSSPVTKSFNRGEC

System: deposited Aβ
Assay: Ex vivo target engagement, immunohistochemistry on PDAPP brain sections
Design: species or system mouse
Details: brain sections of aged PDAPP mice (25-month old); antibody 20 μg/mL
From the text: Secondary HRP reagents specific for human IgG are employed and the deposited plaques are visualized with DAB-Plus (DAKO). Biotinylated murine 3D6 antibody followed by Step-HRP secondary is used as a positive control.

| Molecule | labeling of deposited Aβ in PDAPP hippocampus |
| --- | --- |
| B1 | labeled a subset of deposits |
| B2 | labeled a subset of deposits |
